# Source: PubChem (ICCB-Longwood Screening Facility, Harvard Medical School)
# HCMV UL50-53 inh – disrupts HCMV UL50-UL53 complex binding; HTRF UL50-UL53 interaction, normalized percent inhibition; inhibition, % (test concentration not listed); 0.15% of 190,000 active; in the data active means inhibition above about 27%, passing the limit was not always enough
# GIV Gai3 FP – GIV-Galpha-i interaction inhibition | P08753 | hit rate 0.42% among 210,000 | percent of control (FP), % (no concentration beside the values) | Galpha-i3/FITC-GIV peptide fluorescence polarization, 90 min; active compounds read low; scaled: aluminum fluoride 0%, vehicle 100%;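 active = replicate mean at 85% of control or lower, very high polarization wells dropped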;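 note: wells of about 15 µL received 100 nL stock; the first replicate is given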
# Active calls of the source: *; · = not tested or not shown. This is a sample that favours compounds with a hit; in the whole collection about 0.43% have one here.
no. | compound | HCMV UL50-53 inh | GIV Gai3 FP
1 | Cc1ccc(S(=O)(=O)Nc2nc3n(n2)C(c2ccc(Cl)cc2)C=C(c2ccc(Cl)cc2)N3)cc1 (stereo not drawn) | -20 | 113
2 | COc1ccccc1C(=O)Nc1nc2n(n1)C(c1ccc(F)cc1)C=C(c1ccc(Cl)cc1)N2 (stereo not drawn) | -35 | 125
3 | O=C(Nc1nc2n(n1)C(c1ccc(F)cc1)C=C(c1ccccc1)N2)c1ccc(Cl)cc1 (stereo not drawn) | -27 | 141
4 | Cc1ccc(C2C=C(c3ccc(Cl)cc3)Nc3nc(NC(=O)c4ccco4)nn32)cc1 (stereo not drawn) | -52 | 33*
5 | CCOc1ccc(CNC(=O)C2CCN(c3nc4ccccc4n4c(C)nnc34)CC2)cc1OC | -17 | 103
6 | O=c1cc2nc(-c3ccccc3Cl)nc(SCc3cc(=O)n4c5c(sc4n3)CCCC5)n2[nH]1 | 0 | 98
7 | COC(=O)c1ccccc1NC(=O)N1CC=C(c2c[nH]c3ccccc23)CC1 | -3 | 112
8 | O=C(NCCc1c[nH]c2ccccc12)C1COc2ccccc2C1 (stereo not drawn) | -29 | 104
9 | CC1CCN(c2nc3c(c(=O)n(C)c(=O)n3C)n2Cc2ccc(Br)cc2)CC1 | 0 | 102
10 | Cc1n[nH]c(C)c1N1C(=O)c2cccc3c(N)ccc(c23)C1=O | · | -42*
11 | Nc1ccc2c3c(cccc13)C(=O)N(c1ccccc1)C2=O | -56 | -30*
12 | CN(C)c1ccc2c3c(cccc13)C(=O)N(c1ccccc1)C2=O | -23 | 101
13 | Cc1cccc(N2C(=O)c3cccc4c(N5CCNCC5)ccc(c34)C2=O)c1 | -98 | 88
14 | Cc1n[nH]c(C)c1N1C(=O)c2cccc3c(Br)ccc(c23)C1=O | -135 | 99
15 | O=C1c2cccc3c(N4CCNCC4)ccc(c23)C(=O)N1c1ccc(Cl)cc1 | -73 | -91*
16 | COCCN1CC(C(=O)NCc2ccc3c(c2)OCO3)CC1=O (stereo not drawn) | · | 102
17 | CC(=O)OC(Cn1cccn1)c1ccccc1 (stereo not drawn) | -1 | 107
18 | O=C1c2ccc([N+](=O)[O-])cc2C(=O)N1c1ccc(-c2nc3ccccc3s2)cc1 | -3 | 106
19 | CCC(C)OC(=O)C1=C(C)NC2(O)c3ccccc3C(=O)C12O (stereo not drawn) | · | 107
20 | CC1=C(C(=O)OC(C)C)C2(O)C(=O)c3ccccc3C2(O)N1 (stereo not drawn) | 61* | 99
21 | Cc1cc(C)c(NC(=O)C(C)OC(=O)c2nccnc2N)c(C)c1 (stereo not drawn) | -28 | ·
22 | CCCN(CCC)C(=O)CSc1ccc(C)cc1 | -8 | 104
23 | Nc1ccc2oc3c(c2c1)CCCC3 | 8 | 106
24 | C=Cc1c(C)/c2[n-]/c1=C\c1[n-]c(c(CC)c1C)/C=c1\[n-]c3c(c1C)C(=O)C(C(=O)[O-])C=3c1[n-]c(c(C)c1CCC(=O)[O-])\C=2.[Cu].[Na+].[Na+] (stereo not drawn) | 52* | ·
25 | COC(=O)CN1C(=O)CSc2ccc(S(=O)(=O)Nc3ccc(OC)cc3)cc21 | -8 | 106
26 | O=C(CSc1ccc2c3c(cccc13)C(=O)c1ccccc1-2)Nc1ccccc1 | · | 99
27 | COCCCNC(=O)CSc1ccc2c3c(cccc13)C(=O)c1ccccc1-2 | · | -73*
28 | COC(=O)CC1SC(=O)NC1=Nc1ccc(C)cc1 (stereo not drawn) | 0 | ·
29 | COC(=O)CC1SC(=O)NC1=S (stereo not drawn) | -72 | -68*
30 | C=CCOC(=O)C1=C(C)NC(SCC(=O)Nc2cccc(C(C)=O)c2)=C(C#N)C1c1cccs1 (stereo not drawn) | · | 102

# Complete entries from above. Screens in order: HCMV UL50-53 inh, GIV Gai3 FP
# CC1=C(C(=O)OC(C)C)C2(O)C(=O)c3ccccc3C2(O)N1 (stereo not drawn) in the list: 61*, 99
# Cc1n[nH]c(C)c1N1C(=O)c2cccc3c(N)ccc(c23)C1=O in the list: ·, -42*
# CN(C)c1ccc2c3c(cccc13)C(=O)N(c1ccccc1)C2=O in the list: -23, 101
# O=C(Nc1nc2n(n1)C(c1ccc(F)cc1)C=C(c1ccccc1)N2)c1ccc(Cl)cc1 (stereo not drawn) in the list: -27, 141
# COCCCNC(=O)CSc1ccc2c3c(cccc13)C(=O)c1ccccc1-2 in the list: ·, -73*

# More records follow.
no. | compound | HCMV UL50-53 inh | GIV Gai3 FP
31 | CC(O)C12c3ccccc3C(c3ccccc31)C1C(=O)N(c3ccc(F)cc3)C(=O)C12 (stereo not drawn) | · | 116
32 | COc1ccc(C2C(C(C)=O)=C(C)N=c3s/c(=C\c4cc(C)n(-c5ccccc5)c4C)c(=O)n32)c(OC)c1 (stereo not drawn) | -21 | 142
33 | CCN(CC)c1ccc(/C=c2\sc3n(c2=O)C(c2ccc(OC)cc2OC)C(C(C)=O)=C(C)N=3)c(OC)c1 (stereo not drawn) | -20 | 85*
34 | Brc1ccc(-c2nnc(CSc3nnc(-c4ccco4)n3C3CCCCC3)o2)cc1 | 12 | ·
35 | CN(C)c1ccc(/C=C2/N=C(c3cccs3)OC2=O)cc1 | -12 | ·
36 | CN(C)c1ccc(/C=C2\N=C(c3ccc(Br)o3)OC2=O)cc1 | -26 | -56*
37 | CS(=O)(=O)N1CCN(c2ccc(C#N)cn2)CC1 | -3 | 100
38 | O=C(O)c1ccc2ncsc2c1 | 71* | ·
39 | O=C(c1ccc2ncsc2c1)N1CCCCC1 | 13 | ·
40 | Cc1cc(C)c2c(-n3cccc3)nn(Cc3ccc(C(=O)NCCC(C)C)cc3)c2n1 | -9 | 108
41 | COc1cc(OC)c(NC(=O)N2CCN(c3nc4ccccc4n4cccc34)CC2)cc1Cl | · | 97
42 | C=CCNc1nc2ccccn2c(=O)c1/C=C1\SC(=S)N(Cc2ccc3c(c2)OCO3)C1=O | · | -27*
43 | O=C1/C(=C/c2c(NCCCn3ccnc3)nc3ccccn3c2=O)SC(=S)N1CC1CCCO1 (stereo not drawn) | · | 260
44 | O=C1/C(=C/c2c(NCc3ccccc3)nc3ccccn3c2=O)SC(=S)N1CC1CCCO1 (stereo not drawn) | · | 264
45 | CCCN1C(=O)/C(=C/c2c(NCC)nc3ccccn3c2=O)SC1=S | -24 | -75*
46 | C=CCNc1nc2ccccn2c(=O)c1/C=C1\SC(=S)N(CCOC)C1=O | -33 | -75*
47 | O=C1/C(=C/c2c(NCC3CCCO3)nc3ccccn3c2=O)SC(=S)N1C1CCCCC1 (stereo not drawn) | · | 315
48 | C=CCNc1nc2ccccn2c(=O)c1/C=C1\SC(=S)N(C)C1=O | -36 | -24*
49 | CN1C(=O)/C(=C/c2c(N3CCSCC3)nc3ccccn3c2=O)SC1=S | -4 | 186
50 | O=S(=O)(Nc1ccc(Cn2cnc(-c3nc(-c4cccc(F)c4)no3)c2)cc1)c1cccc(F)c1 | -21 | 107
51 | Cc1ccc(C)c(Cn2cnc3onc(C)c3c2=O)c1 | -13 | 106
52 | O=C(Nc1ccccc1)C1Cc2ccccc2CN1S(=O)(=O)c1ccc(F)cc1 (stereo not drawn) | · | 103
53 | Cc1cccc(COC(=O)c2nnn(-c3cc(C)cc(C)c3)c2C)c1 | -24 | 103
54 | CC(=O)C1=C(C)OC(N)=C(C#N)C1c1cccs1 (stereo not drawn) | · | 100
55 | CC(C)c1ccc(C2C(C#N)=C(N)SC(N)=C2C#N)cc1 | -25 | ·
56 | CCOC(=O)C1=C(C)OC(N)=C(C#N)C1c1cccc(C(F)(F)F)c1 (stereo not drawn) | · | 100
57 | N#CC1=C(N)SC(N)=C(C#N)C1c1cccc(C(F)(F)F)c1 | -50 | -83*
58 | N#CC1=C(N)SC(N)=C(C#N)C1c1cccs1 | -48 | -54*
59 | N#CC1=C(N)SC(N)=C(C#N)C1c1ccc(O)cc1 | -41 | -74*
60 | Cc1cc2nc(CSc3nnc(NC(=O)Nc4ccc(F)c(Cl)c4)s3)cc(=O)n2o1 | -28 | 110
61 | CC(C)n1cn[nH]c1=S | -5 | ·
62 | CCN1/C(=C\C=C2\C(=O)N(C)C(=S)N2C)Sc2ccccc21 | · | 270
63 | CCN1/C(=C\C=C2/C(=O)NC(=O)N(C)C2=O)Sc2ccccc21 | -44 | -61*
64 | CC(NC(=S)NCCN1CCCCC1)c1ccccc1 (stereo not drawn) | 10 | 101
65 | CCNc1c2c3c(cccc3n(C)c1=O)C(=O)c1ccccc1-2 | -17 | ·
66 | Cn1c(=O)c(NC2CCCCC2)c2c3c(cccc31)C(=O)c1ccccc1-2 | · | 3.5*

# A few values from the entries so far:
# entry 31 | GIV Gai3 FP = 116
# entry 44 | GIV Gai3 FP = 264
# entry 5 | HCMV UL50-53 inh = -17
